How the values were obtained:
[1] = system: dogs anesthetized with isoflurane; assay: Isoflurane MAC after perzinfotel by IV, SQ, IM routes, with or without butorphanol (Example 3, Latin square crossover); conditions: for Mean MAC during isoflurane anesthesia, 1st MAC: n = 6 dogs
[2] = system: dogs anesthetized with isoflurane; assay: Hemodynamic and respiratory parameters, concurrent with MAC determinations (Example 1); format: in vivo; conditions: IV perzinfotel 5 mg/kg, 1st
[3] = system: dogs anesthetized with isoflurane; conditions: dog, in vivo

## O=c1c2c(c1=O)N(CCP(=O)(O)O)CCCN2 [Perzinfotel, [2-(8,9-dioxo-2,6-diazabicyclo[5.2.0]non-1-(7)-en-2-yl)ethyl]phosphonic acid]
[1]; Treatment A: 20 mg/Kg IV
  Mean MAC during isoflurane anesthesia, 1st MAC: 0.65%
[1]; Treatment C: 20 mg/Kg IM
  MAC change versus CTRL, 1st MAC: −38%
[1]; Treatment C: 20 mg/Kg IM, 2nd MAC
  MAC change versus CTRL, 2nd MAC: −38%
[1]; Treatment E: 30 mg/Kg IM
  MAC change versus CTRL, 1st MAC: −44%
  Mean MAC during isoflurane anesthesia, 1st MAC: 0.63%
[2]
  MAP: 90 mm Hg
[3]
  Mean MAC of isoflurane required to maintain anesthesia, 1st: 0.87
  Mean MAC of isoflurane required to maintain anesthesia, 2nd: 0.87
  Mean MAC of isoflurane required to maintain anesthesia, Avg.: 0.87
